Assay results as given in PubChem BioAssay AID2275 (Broad Institute, 2010).
This is a selection; strong and weak results do not stand in their true shares. Calls of active or inactive are those of the source. No stated cut-off is given here; in the data, active means viability loss activity score above about 50%; inconclusive means no clear call, values can overlap the other calls; inactive means below about 35%.

test: BJeLR cell viability loss, primary screen, luminescence, CellTiterGlo ATP (AID 2275); conditions: BJeLR fibroblasts viability, 48 h, active compounds read high, HRASV12, hTERT and SV40 LT/ST transformed, concentration not given here;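 further: higher score means fewer live cells and less ATP luminescence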

Q: Which viability loss activity score does the source give for `CC(C)(C)OC(=O)N1CCC(Nc2ccc(OC(F)(F)F)cc2)CC1` here?
A: Its viability loss activity score is inactive: 1.37%.

Q: With `FC(F)(F)Oc1ccc(NC2CCNCC2)cc1` as the molecule, how does the viability loss activity score read?
A: Its viability loss activity score is inactive: -1.53%.
